Bioassay records (PubChem BioAssay)
A selection: hits, their analogues and other compounds. The true share with any hit is near 16%.
miR-21 reporter: raises the signal of a miR-21 reporter | HeLa miR-21 FLuc reporter, luciferase, 48 h | Potency, µM (doses to about 38.3 µM), for the others: at the highest dose reporter change, positive = more light | 340,000 tested, under 10 active | AID 2288; active = well fitted rising curve with a large enough effect; inconclusive = small, poorly fitted or top-dose-only effect; inactive = no such curve, though single readings can be large or run the other way;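 also: % of control where 0% means no effect; miR-21 action dims this reporter so a rising signal means less miR-21 action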
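Compounds were titrated across several concentrations (up to approximately 40 uM) and incubated 48 hours with HeLa miR-21-FLuc reporter cells (miR-21 target sequence downstream of FLuc, endogenous miR-21). Readout was firefly luciferase luminescence after lytic detection reagent.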
TDP1 cell noCPT: qHTS for Inhibitors of human tyrosyl-DNA phosphodiesterase 1 (TDP1): qHTS in cells in absence of CPT; DT40 Tdp1-/- hTDP1 cells, no CPT, ATP luminescence, 48 h; Potency, µM (doses to about 46.2 µM), for inactives: at the highest dose activity change, negative = growth inhibition, hits mostly inhibitors; 15% of 420,000 active; AID 686978, 2013; note: potency is the fitted concentration of half-maximal effect; % is set by controls: 0 for no effect and ±100 for the full control effect; nearly all actives have a fitted effect of over 55% in size
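Camptothecin absent (DMSO only). Human TDP1-complemented DT40 knockout cells, 400 cells/well, 37 °C for minimum 48 hr; ATP measured via CellTiter-Glo, 30 min dark incubation, luminescence.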
uPA surface inh: inhibitors of cell surface uPA generation; cell surface uPA generation assay, qHTS; Potency, µM (series often up to 38.3 µM), for inactives: top-dose activity change, negative = inhibition, hits mostly inhibitors; 0.31% of 330,000 active; AID 540303; active = well fitted inhibition curve with a large enough effect; inconclusive = small, poorly fitted or top-dose-only effect; inactive = no such curve, though single readings can be large or run the other way; tested in mouse RAW 264.7 cells; note: potency is the fitted concentration of half-maximal effect; % is set by controls: 0 for no effect and ±100 for the full control effect; nearly all actives have a fitted effect of over 55% in size
TDP1 cell CPT: growth inhibition of DT40 Tdp1-/-;hTDP1 cells with camptothecin (screen for TDP1 inhibitors). AID 686979. 12% of 420,000 active. chicken DT40 Tdp1-/-;hTDP1 cells + 20 nM CPT, ATP luminescence, 48 h. Potency, µM (titrated, usually from 46.2 µM), without a hit: at the highest dose activity change, negative = growth inhibition, actives largely listed as inhibitors; note: potency is the fitted concentration of half-maximal effect; % is set by controls: 0 for no effect and ±100 for the full control effect; nearly all actives have a fitted effect of over 55% in size
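Cell growth measured by CellTiter-Glo luminescence after a minimum 48 h, 37 C compound exposure with 20 nM CPT in Tdp1-knockout DT40 cells stably expressing hTDP1, seeded 400/well; qHTS titration format.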
TDP1 block: TDP1 (human) enzyme inhibition. Q9NUW8. recombinant TDP1, AlphaScreen DNA substrate cleavage. Potency, µM (series often up to 130 µM), inactives show top-dose activity change, negative = inhibition, usual class: inhibitors. 0.28% of 350,000 active; note: potency is the fitted concentration of half-maximal effect; % is set by controls: 0 for no effect and ±100 for the full control effect; nearly all actives have a fitted effect of over 40% in size
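Steps: enzyme plus compound, 15 min RT; add biotin/phosphotyrosine-FITC oligonucleotide (15 nM final), react 5 min; add donor/acceptor beads (10 ug/ml final), 10 min; read AlphaScreen. Tdp1 at 1 nM final.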
* marks the source's active call; other numbers are inactive results; u = inconclusive; x = not tested or not shown; ! = a repeat was not active; [ ] = another dose, or the depositor's remark. Unless noted, calls come from the whole dose curve; as a rule, active = well fitted curve in the direction sought with a large enough effect; inconclusive = small, poorly fitted or top-dose-only effect, or another doubt; inactive = no such curve, though single readings can be large; an effect the other way counts as inactive or inconclusive.

mol | miR-21 reporter | TDP1 cell noCPT | uPA surface inh | TDP1 cell CPT | TDP1 block
COCCN=C1NN=C(c2ccc(C)c([N+](=O)[O-])c2)CS1 | -66% | u | 8% | u | 8%
Cc1ccc(NC(=O)C2CCCN2C(=O)c2cccs2)c(C)c1 (centres undefined) | -3% | 1% | 3% | -6% | 10%[0.0935 µM]
O=C(C1CCN(S(=O)(=O)N2CCC3(CC2)OCCO3)CC1)N1CCN(Cc2ccccc2)CC1 | -4% | -7% | 8% | -12% | 3%
O=C(C1CCN(S(=O)(=O)N2CCC3(CC2)OCCO3)CC1)N1CCc2ccccc2C1 | 0% | 16µM* | -6% | u | 4%
O=C(NCCN1CCC(Cc2ccccc2)CC1)C1CCN(S(=O)(=O)N2CCC3(CC2)OCCO3)CC1 | 5% | 18µM* | 4% | 15µM* | 5%
COc1ccc(NC(=O)CCC(=O)OCc2ccc(Br)cc2)cc1 | -9% | -6% | 4% | 2% | 3%
CC(=O)Nc1ccc(S(=O)(=O)Nc2ccc(C(=O)NCC(=O)O)cc2)cc1 | 0% | 0% | 9% | -2% | 7%
CC1CN(C(=O)N2CCC(C(=O)NCc3ccccc3F)CC2)c2cc(Cl)ccc2O1 (centres undefined) | u | 15µM* | x | 21µM* | 8%

One compound at a time (already shown). Values in the order: miR-21 reporter	TDP1 cell noCPT	uPA surface inh	TDP1 cell CPT	TDP1 block
O=C(NCCN1CCC(Cc2ccccc2)CC1)C1CCN(S(=O)(=O)N2CCC3(CC2)OCCO3)CC1 as listed: 5%	18µM*	4%	15µM*	5%
CC(=O)Nc1ccc(S(=O)(=O)Nc2ccc(C(=O)NCC(=O)O)cc2)cc1 as listed: 0%	0%	9%	-2%	7%

More structures follow:
mol | miR-21 reporter | TDP1 cell noCPT | uPA surface inh | TDP1 cell CPT | TDP1 block
CC1CN(C(=O)N2CCC(C(=O)NC3CCCCCC3)CC2)c2ccccc2O1 (centres undefined) | 19% | u | x | u | 0%
Cc1ccc2c(c1)N(C(=O)N1CCC(C(=O)NCc3ccccc3F)CC1)CC(C)O2 (centres undefined) | -17% | 18µM* | x | u | 4%
Cc1ccc(N/C=C(/C#N)c2ccsc2)cc1C | -46% | u | 1% | u | 7%
Cc1ccc(CNC(=O)C2CCN(S(=O)(=O)c3ccc(F)cc3)CC2)cc1 | -1% | -23% | x | -20% | x
COc1ccc(CNC(=O)C2CCN(S(=O)(=O)c3ccc4c(c3)C(C)(C)C(=O)N4C)CC2)cc1 | 6% | u | -1% | -16% | x
O=C(NCc1ccc(Cl)cc1)C1CCN(S(=O)(=O)c2ccc(F)cc2)CC1 | 9% | 18µM*! | -2% | 3.7µM* | 5%
CN1C(=O)C(C)(C)c2cc(S(=O)(=O)N3CCC(C(=O)NCc4ccc(F)cc4)CC3)ccc21 | 1% | u | 5% | 7.3µM* | x
O=C(NCc1ccncc1)C1CCN(S(=O)(=O)c2cc(Cl)ccc2Cl)CC1 | 2% | 3% | -2% | -4% | 3%
O=C(NCc1ccncc1)C1CCCN(S(=O)(=O)c2cc(Cl)ccc2Cl)C1 (centres undefined) | x | 16µM* | 2% | u | -4%
O=C(NCCc1ccc(Cl)cc1)C1CCN(S(=O)(=O)N2CCCCC2)CC1 | 1% | u | x | u | 3%
O=C(NCCc1ccc(Cl)cc1)C1CCN(C(=O)c2ccc(F)cc2)CC1 | 4% | 18µM* | 9% | u | 5%
Cc1ccc(NC(=O)NC(=O)N(c2ccccc2)S(C)(=O)=O)cc1 | -25% | -4% | 0% | -3% | 0%
Cn1cc(C(=O)c2ccc(Cl)cc2Cl)cc1C(=O)N/N=C(\N)COc1cccc(C(F)(F)F)c1 | 22% | u | -14% | u | 11%
CCNC(=O)N(C)c1c(CC)nc2ccc(C(=O)N3CCN(C(=O)c4ccco4)CC3)cn12 | x | -7% | x | -3% | x
C=CCNC(=O)C1CCN(S(=O)(=O)c2ccc(Br)cc2)CC1 | 17% | 16µM* | -2% | u | -4%
O=C(NCC1CCCO1)C1CCN(S(=O)(=O)c2ccc(Br)cc2)CC1 (centres undefined) | -4% | 10% | -9% | -10% | 4%

Look-ups from the entries so far:
In uPA surface inh, C=CCNC(=O)C1CCN(S(=O)(=O)c2ccc(Br)cc2)CC1 is entered as -2%
In uPA surface inh, Cc1ccc(NC(=O)NC(=O)N(c2ccccc2)S(C)(=O)=O)cc1 is entered as 0%
In TDP1 cell noCPT, CCNC(=O)N(C)c1c(CC)nc2ccc(C(=O)N3CCN(C(=O)c4ccco4)CC3)cn12 is entered as -7%
In TDP1 cell noCPT, O=C(NCC1CCCO1)C1CCN(S(=O)(=O)c2ccc(Br)cc2)CC1 (centres undefined) is entered as 10%
In miR-21 reporter, Cn1cc(C(=O)c2ccc(Cl)cc2Cl)cc1C(=O)N/N=C(\N)COc1cccc(C(F)(F)F)c1 is entered as 22%

Next results follow.
mol | miR-21 reporter | TDP1 cell noCPT | uPA surface inh | TDP1 cell CPT | TDP1 block
Cc1ccccc1Cn1c2ccccc2c2cnn(CC(=O)NCCc3ccc(Cl)cc3)c(=O)c21 | -5% | 18µM* | x | u | 0%
CCN(CCCNC(=O)Cn1ncc2c([nH]c3ccc(C)cc32)c1=O)Cc1ccccc1 | 1% | 16µM* | 4% | u | 1%
Cc1c2cnn(CC(=O)NCc3ccccc3)c(=O)c2c(C)n1Cc1cccc(Cl)c1 | u | 3.3µM* | x | 4.6µM* | 8%
Cc1ccc(C)c(Cn2c3ccccc3c3cnn(CC(=O)NCC(C)c4ccccc4)c(=O)c32)c1 (centres undefined) | 0% | 23µM* | x | 13µM* | 0%
CCN(CCCNC(=O)Cn1ncc2c([nH]c3ccccc32)c1=O)Cc1ccccc1 | -6% | u | 6% | -14% | 4%
Cc1c2cnn(CC(=O)O)c(=O)c2c(C)n1Cc1cccc(Cl)c1 | 4% | -1% | x | 14% | -3%
O=C(Cc1ccc(Cl)c(Cl)c1)N/N=C/c1cccnc1 | 0% | 0% | -4% | -28% | 2%[56.1 µM]
Cc1oc(-c2ccccc2NC(=O)C2CCC2)nc1CNC(=O)c1cccc(C(F)(F)F)c1 | x | -24% | x | 6%[9.04 µM] | x
O=C(Nc1ccccc1)N1CCC2(CCNCC2)CC1 | x | -27% | x | -14% | x
CCCCOC(=O)c1cccnc1 | -1% | -20% | -1% | 2% | 3%
COC(=O)c1cc2c(n(-c3ccccc3)c1=O)CCCC2=O | x | 6% | 13% | 5% | x
Cc1ccccc1Cn1c2ccccc2c2cnn(CC(=O)NCC(C)c3ccccc3)c(=O)c21 (centres undefined) | -2% | -44% | x | u | -3%
Cc1ccc(C)c(Cn2c3ccccc3c3cnn(CC(=O)NCCN4CCOCC4)c(=O)c32)c1 | 3% | 18µM* | -6% | 16µM* | 6%
CC(CCc1ccccc1)NC(=O)Cn1ncc2c3ccccc3n(Cc3ccccc3F)c2c1=O (centres undefined) | -1% | 8.2µM* | x | 8.2µM* | 3%
Cc1ccc(C)c(Cn2c3ccccc3c3cnn(CC(=O)NC(C)c4ccccc4)c(=O)c32)c1 (centres undefined) | -3% | 2.3µM* | x | 2.9µM* | -3%
Cc1ccc(C)c(Cn2c3ccccc3c3cnn(CC(=O)NC(C)CCc4ccccc4)c(=O)c32)c1 (centres undefined) | -3% | 3.3µM* | x | 3.3µM* | 5%
CC(CCc1ccccc1)NC(=O)Cn1ncc2c3ccccc3n(Cc3ccccc3)c2c1=O (centres undefined) | 4% | u | x | u | 0%
O=C1CCC(C(=O)N2CCCCCC2)CN1CCc1ccc(Cl)cc1 (centres undefined) | -3% | -1% | -1% | -26% | 0%
COCCN(C(=O)COC(=O)C1(c2ccccc2)CC1)c1c(N)n(CC(C)C)c(=O)[nH]c1=O | x | -14% | 3% | 1% | x
